# PubChem BioAssay AID1530 (NMMLSC, 2009)
# Only a part is listed here, and it is no random draw. Calls of active or inactive are those of the source. No stated cut-off is given here; in the data, active means percent response above about 24% (passing the limit was not always enough); inactive means the rest.
# Test system: MEKK2 (MAP3K2) mutant PB1 domain binding to MEK5, human
# Assay: MEK5 binding signal on mutant MEKK2 PB1, primary screen, biochemical, multiplex bead flow cytometry, Alexa488-MEK5 (AID 1530)
# Conditions: at 10 µM, hits give high values
row,SMILES,percent response
1,Cc1cc(C)cc(OP(C)(=O)Nc2ccc(SC(F)(F)F)cc2)c1 (stereo unspecified),inactive: 0%
2,Cc1cccc(C)c1OP(C)(=O)Nc1ccc(SC(F)(F)F)cc1 (stereo unspecified),inactive: 6%
3,CP(=O)(Nc1ccc(SC(F)(F)F)cc1)Oc1ccc(Cl)cc1 (stereo unspecified),inactive: -23%
4,CP(=O)(Oc1ccccc1)OC(c1ccccc1)C(F)(F)F (stereo unspecified),inactive: 0%
5,CP(=O)(Nc1ccccn1)Oc1ccc(Cl)cc1 (stereo unspecified),inactive: 0%
6,CCOP(C)(=S)SCC(=O)NC(C)C(=O)O (stereo unspecified),inactive: 1%
7,CCOC(=O)c1ccc(NP(C)(=O)Oc2ccc(OC)cc2)cc1 (stereo unspecified),inactive: 0%
8,COc1ccccc1OP(C)(=O)Nc1ccccc1 (stereo unspecified),inactive: -1%
9,CP(=O)(Nc1ccccc1Br)Oc1ccccc1 (stereo unspecified),inactive: 1%
10,CP(=S)(Nn1cnnc1)Oc1ccccc1 (stereo unspecified),inactive: 1%
11,CP(=O)(OC12CC3CC(CC(C3)C1)C2)OC12CC3CC(CC(C3)C1)C2,inactive: 2%
12,CCOC(=O)c1ccc(NP(C)(=O)Oc2ccc(Cl)cc2)cc1 (stereo unspecified),inactive: -1%
13,CP(=O)(Oc1ccccc1)N1CCOC1=O (stereo unspecified),inactive: -3%
14,CCc1ccc(OP(C)(=O)Nc2cccnc2)cc1 (stereo unspecified),inactive: -8%
15,COc1ccccc1OP(C)(=O)Nc1c(C)n(C)n(-c2ccccc2)c1=O (stereo unspecified),inactive: 4%
16,O=C(OCCCN1CCCC1)C(O)(c1ccccc1)C1CCCCC1 (stereo unspecified),inactive: -9%

row,SMILES,percent response
1,CCN(CC)CC(O)COC(=O)C(O)(c1ccccc1)C1CCCCC1 (stereo unspecified),inactive: 1%
2,COc1ccc(OP(C)(=O)Nc2ccc(Br)cc2)cc1 (stereo unspecified),inactive: -1%
3,CN(C)C(=O)c1c([N+](=O)[O-])cc([N+](=O)[O-])cc1[N+](=O)[O-],inactive: -4%
4,CP(=O)(Nc1ccc(Cl)cc1)Oc1ccc(F)cc1 (stereo unspecified),inactive: 11%
5,COc1ccccc1OP(C)(=O)Nc1ccccc1Br (stereo unspecified),inactive: -2%
6,CC(C)(C)c1ccc(OP(C)(=O)O)cc1,inactive: 11%
7,CN(C)CCOC(=O)C(O)(c1ccccc1)C1CCCC1 (stereo unspecified),inactive: 1%
8,COc1ccc(OP(C)(=O)Nc2ccccn2)cc1 (stereo unspecified),inactive: 2%
9,COc1ccccc1OP(C)(=O)Nc1ccc(Br)cc1 (stereo unspecified),inactive: -20%
10,CCc1ccc(OP(C)(=O)O)cc1,inactive: 5%
11,CP(=O)(Nc1ccccn1)Oc1ccccc1 (stereo unspecified),inactive: 0%
12,COc1ccccc1OP(C)(=O)Nc1ccc(C)cc1C (stereo unspecified),inactive: 2%
13,Cc1c(NP(C)(=O)Oc2ccc(C(C)C)cc2)c(=O)n(-c2ccccc2)n1C (stereo unspecified),inactive: 3%
14,O=[N+]([O-])c1cc([N+](=O)[O-])c(Nc2ccccn2)c([N+](=O)[O-])c1,inactive: -12%
15,COc1ccc(OP(C)(=O)Nc2ccccc2Br)cc1 (stereo unspecified),inactive: 13%
